From patent US20260055079A1, “PHTHALAZINONE COMPOUNDS AS PARP7 INHIBITORS” (AZKARRA THERAPEUTICS, INC., priority 2022, published 2026)

By UniProt entry, the sequences of proteins in these tests, tags left out. Residues count along the entry.
UniProt Q7Z3E1, whole entry: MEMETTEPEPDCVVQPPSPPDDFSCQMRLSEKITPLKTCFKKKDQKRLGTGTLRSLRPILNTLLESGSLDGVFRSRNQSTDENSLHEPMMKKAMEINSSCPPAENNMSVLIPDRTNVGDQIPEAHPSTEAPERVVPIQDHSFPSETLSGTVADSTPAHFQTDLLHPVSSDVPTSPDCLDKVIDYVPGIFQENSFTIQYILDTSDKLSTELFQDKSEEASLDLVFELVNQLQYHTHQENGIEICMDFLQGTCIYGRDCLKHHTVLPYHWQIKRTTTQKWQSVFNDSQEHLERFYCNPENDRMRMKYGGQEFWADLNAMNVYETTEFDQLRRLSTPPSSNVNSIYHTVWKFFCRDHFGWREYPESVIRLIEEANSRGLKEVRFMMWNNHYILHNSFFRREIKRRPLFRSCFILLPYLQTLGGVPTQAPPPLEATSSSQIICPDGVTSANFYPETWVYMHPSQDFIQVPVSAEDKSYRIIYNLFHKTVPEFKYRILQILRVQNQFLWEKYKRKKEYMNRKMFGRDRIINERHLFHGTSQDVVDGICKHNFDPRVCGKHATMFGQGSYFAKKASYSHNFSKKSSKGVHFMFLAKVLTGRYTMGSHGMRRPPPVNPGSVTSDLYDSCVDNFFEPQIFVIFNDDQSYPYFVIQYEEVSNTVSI
UniProt Q9Y6F1, whole entry: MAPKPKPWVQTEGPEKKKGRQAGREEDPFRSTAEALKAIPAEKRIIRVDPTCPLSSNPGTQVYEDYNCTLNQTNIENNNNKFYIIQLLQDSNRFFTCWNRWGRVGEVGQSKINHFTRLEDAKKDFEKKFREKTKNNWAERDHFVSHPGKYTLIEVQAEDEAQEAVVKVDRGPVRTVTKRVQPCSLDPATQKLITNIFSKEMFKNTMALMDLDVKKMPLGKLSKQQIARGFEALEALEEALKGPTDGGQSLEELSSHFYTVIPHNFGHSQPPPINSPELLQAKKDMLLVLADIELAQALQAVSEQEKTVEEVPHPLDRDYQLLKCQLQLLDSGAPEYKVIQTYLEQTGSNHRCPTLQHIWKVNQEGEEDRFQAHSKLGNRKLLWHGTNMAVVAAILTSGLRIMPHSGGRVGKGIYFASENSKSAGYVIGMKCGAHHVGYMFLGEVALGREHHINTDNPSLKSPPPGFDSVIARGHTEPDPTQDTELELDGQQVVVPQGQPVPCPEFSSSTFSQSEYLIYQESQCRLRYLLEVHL
UniProt Q9H0J9, 484-698 limits assumed: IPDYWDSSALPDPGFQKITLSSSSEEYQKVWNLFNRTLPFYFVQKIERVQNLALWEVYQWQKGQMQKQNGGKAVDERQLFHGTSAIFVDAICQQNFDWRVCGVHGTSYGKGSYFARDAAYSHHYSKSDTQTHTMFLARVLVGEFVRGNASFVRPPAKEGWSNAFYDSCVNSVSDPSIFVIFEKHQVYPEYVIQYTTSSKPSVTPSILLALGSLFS

How the values were obtained:
[1] = system: NCI-H1373 (human lung adenocarcinoma) cells; assay: Cell proliferation assay (CellTiter-Glo), NCI-H1373; assay type: cell-based; conditions: read-out: NCI-H1373 GI50, 6 days
His-GST-PARP7 = His-GST-PARP7 (Homo sapiens (Human), UniProt Q7Z3E1); assay: PARP7 biochemical assay; conditions: read-out: PARP7 IC50
GST-tagged PARP7 = GST-tagged PARP7 (Homo sapiens (Human), UniProt Q7Z3E1); assay: PASTA biochemical PARP screening assay, PARP7
PARP3 = PARP3 (Homo sapiens (Human), UniProt Q9Y6F1); assay: PASTA biochemical PARP screening assay, PARP3; conditions: read-out: IC50 PARP3
PARP12cat = PARP12cat (Homo sapiens (Human), UniProt Q9H0J9); assay: PASTA biochemical PARP screening assay, PARP12cat; conditions: read-out: IC50 PARP12cat

Structure (SMILES)	GI50 [1] [µM]	IC50 (His-GST-PARP7) [µM]	more potent against PARP7 compared to all other PARP family members (GST-tagged PARP7)	IC50 (PARP3) [µM]	IC50 (PARP12cat) [µM]
CN(c1cncc(C#N)c1)C1CN(C(=O)c2cc(Cc3n[nH]c(=O)c4ccc(OC5CCC5)cc34)ccc2F)C1	> 5	0.05 to 0.1			
N#Cc1ccc(N2CCN(C(=O)c3cc(Cc4n[nH]c(=O)c5ccccc45)ccc3F)CC2)nc1			at least 12 fold	0.032	> 3
CN1CCN(C(=O)c2cc(Cc3n[nH]c(=O)c4ccc(Oc5ccc(C(N)=O)cc5)cc34)ccc2F)CC1		0.5 to 2			
